Usually EC50 stands for the concentration giving half of the maximal effect.

The test system of this test is HEK293 (human embryonic kidney 293T cells). The test is described as follows: extended alamarBlue cytotoxicity assay on human embryonic kidney cells. To be noted: read-out: In vitro activity (EC50) HEK293, mean ± SEM, n ≥ 3.

In the case of `O=[As]c1ccccc1` (stereo not shown), the EC50 was 940 nM.

The record behind these values is article PMC4604408, “Targeting the Parasite's DNA with Methyltriazenyl Purine Analogs Is a Safe, Selective, and Efficacious Antitrypanosomal Strategy” (Antimicrobial Agents and Chemotherapy, 2015).
